## Antibody variant affinities, Ab-14 heavy chain, assay B

The target is the same throughout: PDVDLGDISGINAS, from the HR2 region of SARS-CoV-2 spike.

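The parent was found by panning a naive human phage display library on the peptide. These sequences belong to a second round, designed from the earlier measurements on random variants of the parent. Group labels follow the data file (En: ensemble of fine-tuned language models; HC: hill climbing; Gen: genetic algorithm; Gibbs: Gibbs sampling; a sequence that several methods proposed may carry one label only). The assay is AlphaSeq: two haploid yeast populations carry antibody and antigen on their surface. The frequency of each diploid, read from paired DNA barcodes, reflects how well the two displayed proteins bind. Scores were corrected for input abundance and mapped to Kd with protein pairs of known affinity run in the same pool. There are six technical replicates.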

The variants keep the light chain, the linker and the frameworks of Ab-14 (scFv order VH, a (GGGGS)3 linker, VL).
VH: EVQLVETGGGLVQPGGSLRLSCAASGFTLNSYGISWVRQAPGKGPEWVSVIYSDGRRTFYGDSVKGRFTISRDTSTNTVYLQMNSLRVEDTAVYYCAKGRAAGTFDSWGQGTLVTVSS
VL: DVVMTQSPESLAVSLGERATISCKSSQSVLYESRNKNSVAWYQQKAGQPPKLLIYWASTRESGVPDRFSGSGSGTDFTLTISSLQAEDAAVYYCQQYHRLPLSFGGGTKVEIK

The parent's heavy chain CDRs are GFTLNSYGIS, VIYSDGRRTFYGDSVK, GRAAGTFDS; each variant's own CDRs replace them letter for letter.
This list holds designs with more than six substitutions.
Each Kd is an estimate from the mating assay, the geometric mean of the replicates in which the pair was seen; lower is stronger.
An entry "nd" has no value in the source: the pair was not observed among the diploids in any replicate. This suggests poor binding but is not conclusive.

CDR-H1,CDR-H2,CDR-H3,group,Kd,seen in,empty controls
GYSLDDYGIS,VIYADGKRTMYAESVK,GQIAGSLSN,En_Gibbs,31 nM,6/6,1/18
GFNLDEYGVS,VIYADGQRTQYVQTVK,GKTGFVLFD,En_Gibbs,nd,0/6,0/18
GFDLNEYGIS,VIYADGVRTAYSDSVK,GQNAGTFDI,En_Gen,320 pM,6/6,1/18
GFNLNEYGIS,VIYADGRRTFYSDSVK,GEHAGTFDV,En_HC,860 pM,6/6,0/18
GFDLNEYGIS,VIYADGRRKFYADKVK,GENAGTFDV,En_HC,780 pM,6/6,0/18
GFDLNEYGIS,VIYADGKRTAYTDSVK,GNQAGTFDV,En_Gen,540 pM,6/6,0/18
GFDLNEYGIS,VIYADGKRTAYSDSVK,GNTAGTFDI,En_Gen,620 pM,6/6,0/18
GFDLDEYGIS,VIYADGRRTFYADSVK,GEAAGTFTL,En_HC,1.3 nM,6/6,1/18
GFNINEYGIS,VIYADGVRTHYVDDVK,GKHTGVKMM,En_Gibbs,45 nM,1/6,0/18
GFQIDEYGIS,VIYADGQRASYAADVK,GSYDSDIII,En_Gibbs,nd,0/6,0/18
GFDLNEYGIS,VIYADGRRTFYVDSVK,GVNAGTFDE,En_HC,830 pM,2/6,0/18
GFDLNEYGIS,VIYADGRRTAYSDSVK,GEAAGFFDL,En_HC,14 nM,3/6,0/18
GFDINEYGIS,VIYADGNRIAYQDQVK,GFNAGSFDI,En_Gibbs,18 nM,6/6,1/18
GFDLDEYGIS,VIYADGMRTAYADSVK,GVNAGTFDV,En_Gen,810 pM,6/6,0/18
GFDLDEYGIS,VIYADGVRTSYADSVK,GNVAGTFDL,En_Gen,550 pM,6/6,0/18
GFILDEYGIS,VIYADGQRSAYKDSVK,GVDGTNGVI,En_Gibbs,nd,0/6,0/18
GFDLNEYGIS,VIYADGMRTFYADSVK,GTNAGTFDM,En_Gen,320 pM,6/6,0/18
GFDLNEYGIS,VIYADGQRTAYTDSVK,GGNAGTFDV,En_Gen,310 pM,6/6,0/18
GFDLDEYGIS,VIYADGQRTAYSDSVK,GNTAGTFDV,En_Gen,60 pM,4/6,0/18
GFDLNEYGIS,VIYADGMRTAYADSVK,GQVAGTFDV,En_Gen,260 pM,6/6,0/18
GFDLNEYGIS,VIYADGVRTAYVDSVK,GNNAGTFDV,En_Gen,600 pM,6/6,0/18
GFSLDEYGIS,VIYADGMRAAYQPSVK,GFTGFVVAL,En_Gibbs,nd,0/6,0/18
GFDIESYGIS,VIYADGIRANYDQKVK,GTIAGTFVD,En_Gibbs,23 nM,6/6,0/18
GFDLDEYGIS,VIYADGRRTFYADSVK,GELAGTFDA,En_HC,340 pM,6/6,1/18
GFDLNEYGIS,VIYADGMRTFYKDSVK,GTNGGTFDV,En_HC,1.4 nM,6/6,0/18
GFDLDEYGIS,VIYADGQRTAYADNVK,GNQAGTFDV,En_Gen,950 pM,6/6,0/18
GFDLNEYGIS,VIYADGSRTFYADSVK,GNVAGTFDM,En_Gen,190 pM,6/6,0/18
GFDLDEYGIS,VIYADGKRTFYADSVK,GNVAGTFDL,En_Gen,470 pM,6/6,0/18
GFDLEDYGIS,VIYADGKRTAYADSVK,GNQAGTFDV,En_Gen,2.9 nM,6/6,0/18
GFNLLEYGIS,VIYADGRRMSYTDSVK,GGLGKYLTD,En_Gibbs,nd,0/6,1/18
GFDLNEYGIS,VIYADGMRTAYSDSVK,GNHAGTFDL,En_Gen,150 pM,6/6,0/18
GFDINEYGIS,VMYADGSRSVYQDKVK,GFQSGTLDM,En_Gibbs,73 nM,1/6,0/18
GFDLGEYGIS,VIYADGHRTAYSTKVK,GTIGGMFFN,En_Gibbs,nd,0/6,0/18
GFDLNEYGIS,VIYADGQRTFYADSVK,GNVAGTFFS,En_HC,780 pM,6/6,0/18
GFDLDEYGIS,VIYADGKRTYYADSVK,GNNAGTFDV,En_Gen,300 pM,6/6,1/18
GFDLNEYGIS,VIYADGMRTAYVDNVK,GENAGTFDV,En_Gen,270 pM,6/6,0/18
GFDLNEYGIS,VIYADGSRTAYSDSVK,GEVAGTFDV,En_Gen,550 pM,6/6,0/18
GFSLDEYGVS,VIYADGVRQSYADDVK,GGIAGTFLY,En_Gibbs,1.4 nM,6/6,0/18
GFDLNEYGIS,VIYADGMRTAYADNVK,GENAGTFDQ,En_Gen,510 pM,6/6,1/18
GFDLDEYGIS,VIYADGMRTAYSDSVK,GNNAGTFDV,En_Gen,4.4 nM,6/6,0/18
GFSLDEYGIS,VIYADGKRTFYADSVK,GNSAGTFDS,En_HC,1.6 nM,6/6,1/18
GFDLDEYGIS,VIYADGQRTFYADSVK,GENAGTFDI,En_Gen,2.7 nM,6/6,0/18
GFDLNEYGIS,VIYADGRRTFYVDSVK,GQVAGTFDV,En_HC,350 pM,6/6,2/18
GFDLDEYGIS,VIYADGMRTAYQQKVK,GRETDTNVV,En_Gibbs,nd,0/6,1/18
GFDLDEYGIS,VIYADGKRTSYQADVK,GVQGGNALV,En_Gibbs,91 nM,1/6,0/18
GFDLNEYGIS,VIYADGMRTSYIDSVK,GEQAGTFDL,En_HC,500 pM,6/6,0/18
GFDLNEYGIS,VIYADGVRTFYSDSVK,GEAAGTFDV,En_HC,630 pM,6/6,1/18
GFDLLEYGIS,VIYADGMRVAYAKDVK,GMEGQFVVD,En_Gibbs,nd,0/6,0/18
GFDLNEYGIS,VIYADGRRTAYQDSVK,GEAAGTFDQ,En_HC,340 pM,6/6,0/18
GFTLDEYGIS,VIYADGRRTFYADSVK,GKVAGTFDQ,En_HC,72 pM,6/6,0/18
GFDLNEYGIS,VIYADGMRTFYSDSVK,GTNAGTFDI,En_HC,480 pM,6/6,0/18
GFNLNDYGIS,VIYADGHRRYYVDNVK,GHLGGTFFM,En_Gibbs,86 nM,1/6,0/18
AFNLEDYGIS,VIYADGVRAMYVESVK,GGIAGTFDI,En_Gibbs,2.9 nM,6/6,0/18
GFNLNEYGIS,VIYADGVRTFYADSVK,GEIAGTFDV,En_HC,220 pM,6/6,0/18
GFDLDEYGIS,VIYADGRRTFYADSVK,GNNAGTFDQ,En_HC,3.3 nM,6/6,0/18
GFDLNEYGIS,VIYADGMRTAYSDSVK,GHVAGTFDV,En_Gen,220 pM,6/6,1/18
GFDLNEYGIS,VIYADGMRTAYVDSVK,GEQAGTFDL,En_HC,72 pM,6/6,1/18
GFDLNEYGIS,VIYADGMRTAYADSVK,GQNAGTFDQ,En_Gen,430 pM,6/6,0/18

Extract of 7 entries:

CDR-H1,CDR-H2,CDR-H3,group,Kd,seen in,empty controls
GFDINEYGIS,VIYADGNRIAYQDQVK,GFNAGSFDI,En_Gibbs,18 nM,6/6,1/18
GFDLDEYGIS,VIYADGMRTAYSDSVK,GNNAGTFDV,En_Gen,4.4 nM,6/6,0/18
GYSLDDYGIS,VIYADGKRTMYAESVK,GQIAGSLSN,En_Gibbs,31 nM,6/6,1/18
GFDLNEYGIS,VIYADGMRTSYIDSVK,GEQAGTFDL,En_HC,500 pM,6/6,0/18
GFNLDEYGVS,VIYADGQRTQYVQTVK,GKTGFVLFD,En_Gibbs,nd,0/6,0/18
GFNLLEYGIS,VIYADGRRMSYTDSVK,GGLGKYLTD,En_Gibbs,nd,0/6,1/18
GFDLDEYGIS,VIYADGKRTYYADSVK,GNNAGTFDV,En_Gen,300 pM,6/6,1/18

Empty control strains, which show no peptide, gave a signal in 1% of pairings with all heavy chain designs; the median was 120 nM and 95% of these signals were weaker than 7.0 nM. No background was subtracted. For each scFv, signals with the empty controls are counted beside the result.
The range of this assay differs from that of the first round, and the authors advise against merging the two.
The authors' rule: three or more of the six replicates give a measured affinity, fewer mean a poor binder.

The measurements come from Li et al. 2023 (doi:10.1038/s41467-023-39022-2) through the FLAb antibody collection.